The record followed here is US4066678A (priority 1975, dated 1978).

Data set [1] in a line: Solubility. The note with it: for solubility in organic solvents: usual organic solvents.
The nature of data set [2]: Volatility.

For the substance 3-germylpropionic acid oxide, the solubility in water result in data set [1] (oxide prepared by the present procedure (alkaline hydrolysis)) is given as “relatively high solubility”; in data set [1] (product from hydrolysis of 3-trichlorogermylpropionic acid with water) it was “sparingly soluble in water”. Further, the results for the “solubility in organic solvents” value in data set [1] and in data set [1] (listed as 3-Germylpropionic acid oxide) were “low solubility in usual organic solvents” and “poor solubility to organic solvents”, respectively. For the same substance, the volatility result in data set [2] is “poor volatility”.
